Data as given in ChEMBL document CHEMBL4400523, “Synthesis of novel pyrido[1,2-c]pyrimidine derivatives with rigidized tryptamine moiety as potential SSRI and 5-HT1A receptor ligands” (Eur J Med Chem, 2019).

What was measured:
Mus musculus [1] = species on record: Mus musculus; details: CD-1, 5 mg/kg
Mus musculus [2] = species on record: Mus musculus; details: CD-1, 5 mg/kg; remark: listed apart in the source
Mus musculus [3] = species on record: Mus musculus; details: CD-1, 0.1 mg/kg
Mus musculus [4] = species on record: Mus musculus; details: CD-1, 0.1 mg/kg; remark: listed apart in the source
Mus musculus [5] = species on record: Mus musculus; details: CD-1, 0.1 mg/kg; remark: listed apart in the source
Mus musculus [6] = species on record: Mus musculus; details: CD-1

Row | SMILES | deltaT (Mus musculus [1]) | deltaT (Mus musculus [2]) | deltaT (Mus musculus [3]) | deltaT (Mus musculus [4]) | deltaT (Mus musculus [5]) | deltaT (Mus musculus [6])
1 | CCCN(CCC)C1CCc2cccc(O)c2C1 (stereo unspecified) | -0.1 °C | 0.3 °C |  |  |  | 
2 | COc1ccccc1N1CCN(CCN(C(=O)C2CCCCC2)c2ccccn2)CC1 |  |  | 0.1 °C | 0.1 °C | -0.2 °C | -0.1 °C
